Measurements as given in US9387206B2, “Therapeutic approaches for treating Alzheimer's disease” (PHARNEXT, priority 2009, dated 2016).

Test system: rat primary cortical neurons
Assay: Neurite outgrowth in beta-amyloid (Aβ25-35) intoxicated rat primary cortical neuron culture
Type: cell-based
Conditions: Aβ25-35 20 μM, 2 days; drug added 1 hour before

Compound: [H]/N=C(/N)N/C(=N/[H])NCCc1ccccc1 [Phenformin]
- Prevention of Aβ25-35 intoxication, neurite outgrowth (neurite length): significantly prevented
